Experimental findings from published antibiotic growth screens (doi:10.1038/s41589-023-01349-8) are described below.

SMILES strings stand for the structures. The list shows a part of the results.

The subject of this test is A. baumannii ATCC 17978. Description: relative growth (fraction of control); higher = less inhibition. The note with it: 50 µM.
As to `COc1ccccc1CNC(=O)C[C@@H]1C[C@@H]2c3cc(NC(=O)Cc4ccncc4)ccc3O[C@@H]2[C@@H](CO)O1`, the relative growth was found to be 1.08.

`CO[C@@H]1CN(C)C(=O)c2cc(NC(=O)c3ccccc3)ccc2OC[C@H](C)N(C(=O)CN(C)C)C[C@H]1C` yielded a relative growth of 1.01.

Compound `CC1CCCC(C)N1` (configuration not stated) registered a relative growth of 1.04.

Consider `COCC#Cc1ccc2c(c1)O[C@@H](CN(C)Cc1ccc(F)cc1)[C@H](C)CN([C@@H](C)CO)S2(=O)=O`, for which the relative growth came out at 1.47.

In the case of `COc1cc(CCC(=O)O)oc(=O)c1`, the relative growth amounted to 0.938.

Consider `O=C(O)[C@@H]1CCCCN1`, for which the relative growth turned out to be 1.02.

`CC(C)(C)C(=O)C[n+]1ccc(C(N)=O)cc1` returned a relative growth of 0.987.

`CCOC(=O)OC[C@@H]1[C@@H]2NC(=O)N(C)[C@@]1(COC(=O)NCCCCCC(=O)NO)Oc1ccccc12` came in with a relative growth of 0.981.

`O=C(C[C@@H]1C=C[C@H](NS(=O)(=O)c2ccc(F)cc2)[C@@H](CO)O1)N1CCC(Cc2ccccc2)CC1` gave a relative growth of 0.943.

`C=C(c1ccc(C(=O)O)cc1)c1cc2c(cc1C)C(C)(C)CCC2(C)C`: the relative growth came to 1.41.

On to `CCOC(=O)[N-]c1c[n+](N2CCOCC2)no1`, for which the relative growth worked out at 0.895.

In the case of `CC(C)=CCCC(C)C1CC[C@@]2(C)C3=C(CC[C@]12C)C1(C)CC[C@H](O)C(C)(C)C1CC3` (some centres not stated), the relative growth is 0.805.

In the case of `Cc1o[nH]c(=O)c1CC[C@@H](N)C(=O)O`, the relative growth was 0.978.

With `CC[N+](CC)(CC)CCOc1cccc(OCC[N+](CC)(CC)CC)c1OCC[N+](CC)(CC)CC`, the relative growth was determined as 0.963.

For the compound `Cc1cc(-c2ccccc2)nc(SCc2ccccc2)c1C#N`, the relative growth amounted to 1.1.

In turn, `COc1cc2c(=O)c(-c3ccc4c(c3)OCO4)coc2c2c1OC(C)(C)C=C2` showed a relative growth of 1.22.

With `CO[C@H]1CN(C)C(=O)c2ccc(NC(=O)c3ccccc3)cc2OC[C@@H](C)N(C(=O)CN(C)C)C[C@@H]1C`, the relative growth was 1.07.

For the compound `COC1=C(CC=C(C)C)C(=O)c2ccccc2C1=O`, the relative growth was 0.843.

As for `COc1ccc2c(c1)O[C@@H]1COc3cc(OC)c(OC)cc3[C@@H]1C2=O`, the relative growth amounted to 0.945.

In the case of `CC[C@@](N)(C(=O)O)c1ccccc1`, the relative growth worked out at 0.903.

As for `O=C1CO[C@@H](c2ccccc2)CN1`, the relative growth is 0.981.

The compound `COc1ccc(S(=O)(=O)N2C[C@@H](O)COC[C@@H]3O[C@@H](CC(=O)NCCN4CCCCC4)CC[C@H]32)cc1` displayed a relative growth of 0.914.

On to `CCn1c2ccc(Cl)cc2c2cc(Cl)ccc21`, for which the relative growth came to 1.05.

Compound `O=C(C[C@@H]1CC[C@@H](NC(=O)Cc2ccccn2)[C@H](CO)O1)NCCc1ccncc1` showed a relative growth of 1.07.

Regarding `CN1C(CC(=O)c2ccccc2)CCCC1CC(O)c1ccccc1.Cl` (configuration not stated), the relative growth was determined as 0.958.

For the compound `NCc1ccc(S(N)(=O)=O)cc1`, the relative growth amounted to 0.983.

As for `O=C(C1=C[C@@H](c2csc3ccccc23)C[C@@H](OCc2ccc(CO)cc2)O1)N1CCN(Cc2ccc3c(c2)OCO3)CC1`, the relative growth was 1.13.

`CCc1oc2ccccc2c1C(=O)c1cc(Br)c(O)c(Br)c1` returned a relative growth of 0.908.

In turn, `NCCCn1c2c(c3ccccc31)CCCC2` came in with a relative growth of 0.695.

The compound `COc1cccc(NC(=O)N[C@@H]2C=C[C@H](CC(=O)N3CCN(C)CC3)O[C@H]2CO)c1` came in with a relative growth of 1.05.

The compound `CCOP(=O)(CC(=O)O[C@H]1[C@H](OC(=O)Nc2ccccc2-c2ccccc2)[C@H](OC(=O)Nc2ccccc2-c2ccccc2)[C@@H](OC)O[C@@H]1COC(=O)NCCCCCC(=O)NO)OCC` yielded a relative growth of 0.749.

Compound `Cn1cnc(S(=O)(=O)N2C[C@@H](O)COC[C@@H]3O[C@@H](CC(=O)NC4Cc5ccccc5C4)CC[C@H]32)c1` showed a relative growth of 0.986.

For the compound `Nc1nc(Cl)nc(Cl)n1`, the relative growth turned out to be 1.03.

Consider `C[C@@H](O)C#Cc1ccc2c(c1)O[C@H](CN(C)C(=O)Nc1ccccc1)[C@@H](C)CN([C@@H](C)CO)S2(=O)=O`, for which the relative growth was 0.921.

`Nc1ncnc2c1ncn2[C@H]1CCCO1` had a relative growth of 0.932.

In turn, `CC(=O)Nc1ccc(C(=O)O)cc1` gave a relative growth of 1.07.

In turn, `COc1ccccc1NC(=O)N(C)C[C@H]1Oc2ncc(Br)cc2C(=O)N([C@@H](C)CO)C[C@H]1C` displayed a relative growth of 0.976.

`CSc1ccc2c(c1)N(CCC1CCCCN1C)c1ccccc1S2.Cl` (configuration not stated) displayed a relative growth of 0.901.

As for `CNC(=O)C(=O)NC[C@H]1OCCN1S(=O)(=O)c1ccccc1`, the relative growth worked out at 0.882.

Turning to `COc1ccc(S(=O)(=O)N[C@H]2CC[C@H](CC(=O)N3CCN(c4ccccc4)CC3)O[C@H]2CO)cc1`, the relative growth came to 0.866.

Turning to `O=C(C[C@@H]1C=C[C@@H](NC(=O)Nc2cc(F)ccc2F)[C@@H](CO)O1)NCCCN1CCOCC1`, the relative growth turned out to be 0.94.

Turning to `CC[C@H]1CN(C(=O)c2cnccn2)N1C`, the relative growth turned out to be 1.

With `CC1(C)N=C(N)N=C(N)N1c1ccccc1`, the relative growth stood at 0.975.

`CC[C@@H]([C@H](C)O)n1ncn(-c2ccc(N3CCN(c4ccc(OC[C@@H]5CO[C@@](Cn6cncn6)(c6ccc(F)cc6F)C5)cc4)CC3)cc2)c1=O`: the relative growth was 0.931.

In turn, `CN(C)[C@@H]1C(O)=C(C(N)=O)C(=O)[C@@]2(O)C(O)=C3C(=O)c4c(O)cccc4[C@@](C)(O)[C@H]3C[C@@H]12.Cl` displayed a relative growth of 0.171.

Compound `O=C(O)c1ccccc1` gave a relative growth of 0.966.

With `CCC(C)C(=O)O[C@H]1C[C@H](O)C=C2C=C[C@H](C)[C@H](CC[C@@H](O)C[C@@H](O)CC(=O)[O-])C21.[Na+]` (some centres not stated), the relative growth amounted to 0.906.

`O=C(C[C@@H]1CC[C@H](NC(=O)CN2CCOCC2)[C@H](CO)O1)NCCc1ccccc1` displayed a relative growth of 1.18.

`COc1cccc(NC(=O)N2C[C@@H](O)COC[C@@H]3O[C@@H](CC(=O)NC4Cc5ccccc5C4)CC[C@H]32)c1` registered a relative growth of 1.11.

Take `Brc1ccc(-c2cc3n(c2)CCc2ccccc2-3)cc1`: the relative growth was determined as 1.15.

`CN1C(=O)/C(=C(/C#N)C(N)=O)c2ccccc21` had a relative growth of 0.915.

With `CCOc1ccc(NC(C)=O)cc1`, the relative growth worked out at 1.06.

In turn, `CNC(=O)C[C@@H]1CC[C@@H]2[C@H](COC[C@@H](O)CN2C(=O)c2ccccn2)O1` had a relative growth of 0.965.

Compound `CCOC(=O)/C(C)=N/NC(C)=O` registered a relative growth of 0.879.

For `CO[C@H]1CN(C)C(=O)c2ccc(NC(=O)Nc3cccc(F)c3)cc2OC[C@H](C)N(C(=O)Nc2c(C)noc2C)C[C@H]1C`, the relative growth stood at 1.02.

In turn, `C[C@H]1CCC2=C(CCC[C@@]2(C)C(=O)O)[C@@]1(C)CCc1ccoc1` returned a relative growth of 0.947.

Take `CCCC[C@@H](CC)COC(=O)C(C#N)=C(c1ccccc1)c1ccccc1`: the relative growth amounted to 1.34.

With `O=C(CCn1ccc(=O)[nH]c1=O)Nc1ccc2c(c1)NC(=O)CO2`, the relative growth was 0.891.

In turn, `COc1cc2ncnc(Nc3ccc(F)c(Cl)c3)c2cc1OCCCN1CCOCC1` showed a relative growth of 1.04.

`C/C(C[P+](c1ccccc1)(c1ccccc1)c1ccccc1)=N\NC(=O)CCCCCCC(=O)Nc1ccccc1O` gave a relative growth of 0.869.

In turn, `CO[C@@H](CN(C)C(=O)Nc1ccc(C(F)(F)F)cc1)[C@@H](C)CN(Cc1ccccc1Cl)[C@@H](C)CO` came in with a relative growth of 0.598.

For `COc1ccc(CNCC(=O)O)cc1`, the relative growth turned out to be 1.04.

As to `[N-]=[N+]=Nc1ccccc1[C@H]1OC(c2ccc(OCCCO)cc2)=N[C@@]1(CCS(=O)(=O)c1ccccc1)C(=O)NCc1ccccc1`, the relative growth is 1.01.

Regarding `CCC(=O)Nc1nn2c(C)nnc2s1`, the relative growth is 0.924.

In the case of `C[C@]12CCC(=O)C=C1CCC1C2[C@@H](O)C[C@@]2(C)C1CC[C@]2(O)C(=O)COC(=O)CCC(=O)O` (some centres not stated), the relative growth amounted to 1.15.

For the compound `NC(=O)CCN1C(=O)[C@@H]2[C@@H](C1=O)[C@@H]1C=C[C@@H]2C1`, the relative growth is 0.985.

The compound `O=C(C[C@@H]1CC[C@@H]2[C@H](COC[C@@H](O)CN2C(=O)c2ccc3c(c2)OCO3)O1)NCCN1CCCC1` returned a relative growth of 0.983.

On to `O.O=C(O)[C@@H]1[C@H]2C[C@H]3c4[nH]c5ccccc5c4CCN3C[C@@H]2CC[C@@H]1O`, for which the relative growth worked out at 0.92.

Compound `CNC(=O)Cn1c(=O)c2c(OC)ccnc2n(C)c1=O` came in with a relative growth of 1.01.

`NC(=O)Nc1ccc(C(=O)O)cc1` gave a relative growth of 1.23.

In the case of `COC(=O)C(CC#Cc1ccc2c(c1)[C@]1(C(=O)N2)[C@H](c2ccc(O)cc2)N2[C@H](c3ccccc3)[C@H](c3ccccc3)OC(=O)[C@H]2[C@@H]1C(=O)NC[C@H](O)c1ccccc1)C(=O)OC`, the relative growth amounted to 0.986.

Turning to `CC(C)=CCc1c2c(c3occ(-c4ccc(O)cc4)c(=O)c3c1O)C=CC(C)(C)O2`, the relative growth was determined as 0.834.

In turn, `CN1CCN(c2c(F)cc3c(=O)c(C(=O)O)cn4c3c2SCC4)CC1` returned a relative growth of 0.139.

For `CN1CCN(S(C)(=O)=O)CC1`, the relative growth stood at 0.932.

Turning to `CCC(=O)N[C@H]1CC[C@@H](CC(=O)OC)O[C@@H]1CO`, the relative growth was 1.07.

`COC(=O)C1=C(C)NC(C)=C(C(=O)OCC(C)C)C1c1ccccc1[N+](=O)[O-]` (configuration not stated): the relative growth amounted to 1.16.

`O=C(C[C@H]1CC[C@@H](NS(=O)(=O)c2ccccc2F)[C@@H](CO)O1)NCCCN1CCOCC1` came in with a relative growth of 0.888.

The compound `CN(C/C=C/C#CC(C)(C)C)Cc1cccc2ccccc12.Cl` had a relative growth of 1.12.

For `CCCNC(=O)N1C[C@H](O)COC[C@H]2O[C@@H](CC(=O)N3CCOCC3)CC[C@@H]21`, the relative growth was 0.809.

In turn, `COc1ccccc1-c1ccc2c(c1)O[C@H](CN(C)C(=O)c1ccncc1)[C@@H](C)CN([C@H](C)CO)S2(=O)=O` had a relative growth of 1.13.

`O=c1cc(-c2ccc(O)cc2)oc2cc(O)ccc12`: the relative growth stood at 1.08.

`COCCNC(=O)C[C@@H]1C[C@@H]2c3cc(NC(=O)COC)ccc3O[C@@H]2[C@@H](CO)O1` displayed a relative growth of 0.966.

`Cn1c(=O)[nH]c2nnc(-c3ccccn3)nc2c1=O` gave a relative growth of 0.633.

`O=c1c2ccccc2oc2ccc(O)cc12` came in with a relative growth of 1.1.

Consider `NC(=O)NC1NC(=O)NC1=O` (configuration not stated), for which the relative growth came to 0.883.

`O=C(CN1CCOCC1)NCC[C@@H]1CC[C@H](NC(=O)Nc2ccccc2)[C@@H](CO)O1` had a relative growth of 1.09.

Compound `CC/C=C\CC1=C(C)CCC1=O` came in with a relative growth of 1.04.

Compound `Cn1cnc(CCNC(=O)C[C@H]2CC[C@@H]3[C@H](COC[C@H](O)CN3C(=O)Nc3ccc(Cl)cc3)O2)c1` registered a relative growth of 0.945.

With `C[C@@H]1CN([C@H](C)CO)S(=O)(=O)c2ccc(C#Cc3ccccc3)cc2O[C@@H]1CN(C)C(=O)CN(C)C`, the relative growth was found to be 0.803.

Consider `O=C1CCc2ccc(OCCCCN3CCN(c4cccc(Cl)c4Cl)CC3)cc2N1`, for which the relative growth was found to be 0.795.

`CCC(/C=C/[C@@H](C)[C@H]1CCC2C3CC=C4C[C@@H](O)CC[C@]4(C)C3CC[C@@]21C)C(C)C` (some centres not stated) returned a relative growth of 0.925.

Regarding `O=C(C[C@@H]1CC=CC[C@@H](NC(=O)OCC2c3ccccc3-c3ccccc32)C(=O)OC[C@@H](Cc2ccccc2)NC1=O)N[C@@H](CO)Cc1ccccc1`, the relative growth amounted to 0.922.
